Where two headings read alike, the source gives them in different places.
Details: rat
[1] = intravenous injection, [125I]-biotin-PNA

Substance: 5′-biotin-CTCCGCTTCTTCCTGCCA-Tyr-Lys-CONH2-3′ [[^125I]-Biotin-PNA]
- brain uptake (60 min after intravenous injection, biotin-PNA, listed as [^125I] biotin-PNA): 0.0083±0.0009 % ID/g
- brain uptake (60 min after intravenous injection, biotin-PNA, listed as biotin-PNA): 0.0083 % ID/g
- BBB PS product [1]: 0.12 ± 0.01 µL/min/g
- PS Product [1]: 0.12 ± 0.01 μl/ml/g brain
- brain uptake [1]: 0.0083 ± 0.0009 % ID/g brain
- brain uptake increase when bound to anti-TfR IgG3-CH3-Av versus free biotin-PNA (intravenous, biotin-PNA): at least 15 fold

Reference: patent US20050085419A1, “Anti-growth factor receptor avidin fusion proteins as universal vectors for drug delivery” (The Regents of the University of California, priority 1999, published 2005)
